The record followed here is PMC4084610 (Advances in pharmacology (San Diego, Calif.), 2014).

Protein sequences, listed by entry. Tags and fused reporters are not part of them.
UniProt Q01827, whole entry: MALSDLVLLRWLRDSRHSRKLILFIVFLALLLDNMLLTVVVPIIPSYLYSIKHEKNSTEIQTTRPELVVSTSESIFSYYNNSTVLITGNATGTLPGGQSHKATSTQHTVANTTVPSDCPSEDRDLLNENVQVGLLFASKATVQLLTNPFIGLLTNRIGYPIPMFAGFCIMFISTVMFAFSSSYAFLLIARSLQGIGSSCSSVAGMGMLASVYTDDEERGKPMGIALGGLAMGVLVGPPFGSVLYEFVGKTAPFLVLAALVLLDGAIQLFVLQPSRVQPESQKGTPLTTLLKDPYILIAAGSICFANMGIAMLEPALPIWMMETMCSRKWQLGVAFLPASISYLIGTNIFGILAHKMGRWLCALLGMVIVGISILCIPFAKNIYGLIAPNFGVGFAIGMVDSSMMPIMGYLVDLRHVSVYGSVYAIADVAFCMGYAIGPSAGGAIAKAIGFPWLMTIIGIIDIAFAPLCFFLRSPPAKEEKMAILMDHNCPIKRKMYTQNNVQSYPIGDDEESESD

Experiment [1] has as its target T1, VMAT2 (Rattus norvegicus, UniProt Q01827). The experiment is classed as binding. As to conditions: whole rat brain vesicles, mean±SEM.
For experiment [2], the target named is T1, VMAT2. It counts as biochemical. As to conditions: rat striatal vesicles, mean±SEM.

Take `COc1cc2c(cc1OC)C1CC(=O)C(CC(C)C)CN1CC2` (centres unmarked) [TBZ, Tetrabenazine, reference compound]: the “[3H]DTBZ binding Imax” value on VMAT2 [1] was determined as 100%. In addition, the “VMAT2 [3H]DA uptake Imax” value at VMAT2 [2] turned out to be 92±3%.
